Literature values as cited in patent US20210214399A1, “PH LOW INSERTION PEPTIDE AND COMPOSITION THEREOF” (priority 2017, published 2021).

Experiments:
[1] = background art, compared with wild-type pHLIP; cited from earlier work
[2] = aqueous solution of neutral pH; cited from earlier work

Sequence	elimination rate in the blood [1]	concentration of the pHLIP monomer [2]
ACEEQNPWARYLEWLFPTETLLLEL [var7]	accelerates the elimination rate in the blood	–
ACEQNPIYWARYADWLFTTPLLLLDLALLVDADEGT [WT]	–	less than 30 μg/ml
